# In patent publication US12161609B2, “Composition and method for treating autism spectrum disorder (ASD) symptoms of paranoia with self isolation and/or aggression” (priority 2021, dated 2024):
# Test system: ASD aggression toward others or self and paranoia/social isolation
smiles,measurement,setting,value
Cc1nc2n(c(=O)c1CCN1CCC(c3noc4cc(F)ccc34)CC1)CCCC2 [risperidone],dyskinesia / tardive dyskinesia and dystonias,Example 1: ASD person,caused development of dyskinesia and dystonias
same,time to development of dyskinesia and dystonias,"Example 1: ASD person, on risperidone",≤ 2 weeks
same,tardive dyskinesia,Example 2: ASD person,developed tardive dyskinesia
same,tardive dyskinesia / dystonic side effects,"summary over the ASD subjects, long-term use (two years for the antipsychotics)",developed tardive dyskinesia
